Measured values reported in PMC3335822 (PLoS ONE, 2012).

How the values were obtained:
[1] = target: T1, human EYA3 (Homo sapiens, UniProt Q99504); experiment: pNPP hydrolysis by full-length EYA3; assay type: biochemical; set-up: residues 127–573 of NM_001990, isoform 1; His-GST (poly-histidine, glutathione-S-transferase) with TVMV protease site (cleaved yes); made in house; details: for IC50: full-length human EYA3, substrate pNPP
T1 sequence (Q99504 127-573): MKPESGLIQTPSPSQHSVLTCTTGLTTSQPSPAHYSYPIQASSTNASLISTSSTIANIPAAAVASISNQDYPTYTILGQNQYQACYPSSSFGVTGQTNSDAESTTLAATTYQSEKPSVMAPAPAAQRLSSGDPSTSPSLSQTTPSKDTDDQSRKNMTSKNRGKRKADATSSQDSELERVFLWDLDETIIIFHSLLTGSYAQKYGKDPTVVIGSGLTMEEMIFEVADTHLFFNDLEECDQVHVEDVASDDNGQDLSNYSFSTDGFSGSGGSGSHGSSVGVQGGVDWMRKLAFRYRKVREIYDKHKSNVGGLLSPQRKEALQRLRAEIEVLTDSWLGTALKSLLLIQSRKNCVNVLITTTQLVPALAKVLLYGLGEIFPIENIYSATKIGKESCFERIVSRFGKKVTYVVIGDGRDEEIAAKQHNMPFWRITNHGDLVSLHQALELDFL
Excerpt: The catalytic domain (ED) of mouse Eyes Absent 3 (Eya3(223–510)) was purified as described before. Human Eyes Absent 3 isoform 2 (representing the major species identified in human cell lines by mass spectrometry and residues 127–573 of NM_001990, isoform 1) was sub-cloned into pDEST565 to express a poly-histidine- Glutathione-S-transferase (His-GST) tagged fusion protein with a TVMV protease site. The protein was purified by glutathione-S-transferase affinity chromatography followed by TVMV cleavage, Ni-NTA chromatography, and finally size exclusion chromatography. […]
(§1) Compounds were dissolved in DMSO and diluted as needed. […] Reactions were incubated at 30°C for 30 minutes and quenched with 100 mM EDTA pH 10. IC50 values were then calculated directly from regression curves using PRISM. All reported values are the mean of two independent experiments.

[2] = target: T2, Eya3(ED) (Mus musculus, UniProt P97480); experiment: pNPP hydrolysis by the catalytic domain of Eya3; assay type: biochemical
T2 construct: The catalytic domain (ED) of mouse Eyes Absent 3 (Eya3(223–510)) was purified; made in house
T2 sequence (P97480 223-510): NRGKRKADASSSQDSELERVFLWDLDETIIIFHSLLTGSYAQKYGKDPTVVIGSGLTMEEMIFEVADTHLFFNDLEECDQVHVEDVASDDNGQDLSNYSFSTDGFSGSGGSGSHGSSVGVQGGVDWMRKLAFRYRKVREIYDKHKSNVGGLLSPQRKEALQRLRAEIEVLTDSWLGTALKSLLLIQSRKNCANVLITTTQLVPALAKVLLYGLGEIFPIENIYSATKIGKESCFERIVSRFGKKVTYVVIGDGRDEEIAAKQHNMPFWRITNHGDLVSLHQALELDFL
Excerpt: The catalytic domain (ED) of mouse Eyes Absent 3 (Eya3(223–510)) was purified as described before. Human Eyes Absent 3 isoform 2 (representing the major species identified in human cell lines by mass spectrometry and residues 127–573 of NM_001990, isoform 1) was sub-cloned into pDEST565 to express a poly-histidine- Glutathione-S-transferase (His-GST) tagged fusion protein with a TVMV protease site. The protein was purified by glutathione-S-transferase affinity chromatography followed by TVMV cleavage, Ni-NTA chromatography, and finally size exclusion chromatography.
The NCI Diversity Set II was obtained from the NCI in 96-well trays from the NIH Molecular Libraries Program and stored as 10 mM stocks in DMSO. An initial manual screen was conducted using the previously described p-nitrophenylphosphate assay and mouse Eya3(223–510) in a reaction mixture containing 20 mM MES pH 6, 2 mM MgCl2, 125 μM inhibitor, 3.4 mM para-nitrophenol phosphate (pNPP) and 0.01 μg/µL enzyme.
as §1

[3] = target: T1, human EYA3; experiment: biochemical

Structure (SMILES)	IC50 [1] [µM]	IC50 [2] [µM]	IC50 [3] [µM]	fold greater activity towards EYA3 than PTP1B ([1]; pNPP hydrolysis, EYA3 versus PTP1B)
CCCCc1oc2ccccc2c1C(=O)c1ccc(O)cc1 [Compound 1b]	15.2	–	–	–
CCc1oc2ccccc2c1C(=O)c1cc(Br)c(O)c(Br)c1 [Compound 1, Benzbromarone, reference compound]	8.3	11	37	4.7–6.5 fold
